The numbers were not newly measured in paper PMC3341666 (Biochemistry, 2009), which cites them from elsewhere.

Amino acid sequences for entries named in this document (tags omitted). Residues count along the entry.
UniProt P07288, 25-261: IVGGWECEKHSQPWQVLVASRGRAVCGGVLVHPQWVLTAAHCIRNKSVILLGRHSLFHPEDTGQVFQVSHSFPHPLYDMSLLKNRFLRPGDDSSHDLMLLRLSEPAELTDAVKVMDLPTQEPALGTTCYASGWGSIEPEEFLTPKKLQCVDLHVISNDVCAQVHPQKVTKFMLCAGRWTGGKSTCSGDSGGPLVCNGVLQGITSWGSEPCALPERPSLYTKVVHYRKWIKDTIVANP

pKi: −log10 of the molar value.

The data set deals with Prostate-Specific Antigen (PSA) (Homo sapiens, UniProt P07288). As to conditions: read-out: Ki for PSA; previous study.

One may read the pKi as −log10 of the Ki, conventionally taken in molar units. Turning to Z-SSKL(boro)L (SSKLL), the pKi was 7.19.
